Laboratory results: patent US11478558B2, “Prostate-specific membrane antigen targeted high-affinity agents for endoradiotherapy of prostate cancer” (The Johns Hopkins University, priority 2017, dated 2022)
pKi: −log10 of the molar value.

The chains behind the UniProt entries cited, without tags or fusion partners.
UniProt Q04609, whole entry: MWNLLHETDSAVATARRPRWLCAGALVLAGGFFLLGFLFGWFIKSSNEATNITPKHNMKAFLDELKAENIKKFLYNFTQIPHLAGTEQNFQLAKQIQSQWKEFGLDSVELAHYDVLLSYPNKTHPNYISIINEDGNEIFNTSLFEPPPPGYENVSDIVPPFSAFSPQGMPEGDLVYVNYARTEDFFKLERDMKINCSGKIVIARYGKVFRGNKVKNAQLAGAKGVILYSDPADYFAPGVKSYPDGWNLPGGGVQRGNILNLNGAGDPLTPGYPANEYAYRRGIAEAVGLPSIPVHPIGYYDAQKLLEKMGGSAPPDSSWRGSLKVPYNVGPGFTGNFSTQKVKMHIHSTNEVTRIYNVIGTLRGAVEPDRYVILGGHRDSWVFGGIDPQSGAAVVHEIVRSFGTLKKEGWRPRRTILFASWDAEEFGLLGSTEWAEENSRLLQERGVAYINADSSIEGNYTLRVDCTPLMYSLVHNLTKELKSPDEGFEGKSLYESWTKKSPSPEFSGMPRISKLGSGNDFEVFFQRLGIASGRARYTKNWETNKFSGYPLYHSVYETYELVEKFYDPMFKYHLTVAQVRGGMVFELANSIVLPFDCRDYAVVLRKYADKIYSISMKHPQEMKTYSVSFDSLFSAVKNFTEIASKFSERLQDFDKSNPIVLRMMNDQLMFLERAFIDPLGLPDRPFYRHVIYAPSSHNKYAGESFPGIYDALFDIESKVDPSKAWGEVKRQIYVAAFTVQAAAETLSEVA

Biological target: PSMA (Homo sapiens (Human), UniProt Q04609)
Test: PSMA binding affinity
Settings: Table 6, given as range

With `O=C(O)CC[C@H](NC(=O)N[C@@H](CCCCN(Cc1ccc(Br)cc1)C(=O)[C@H]1CC[C@H](CNC(=O)CCC(C(=O)O)N2CCN(CC(=O)O)CCN(CC(=O)O)CCN(CC(=O)O)CC2)CC1)C(=O)O)C(=O)O` (stereo partly shown) the pKi was 8.92 to 9.37.
